{"source": "patent US4835162A", "about": "(priority 1987, dated 1989)", "key": {"[1]": {"target": "nicotinic receptors (rat brain membranes)", "assay_type": "binding", "conditions": "for IC50: read-out: 3H-Nicotine Binding IC50"}, "[2]": {"target": "nicotinic receptors (rat brain membranes)", "conditions": "read-out: 3H-MCC Binding IC50"}}, "note": "Where two headings read alike, the source gives them in different places.", "data": [{"smiles": "COC(=O)[C@H]1[C@@H](OC(=O)c2ccccc2)C[C@@H]2CC[C@H]1N2C", "note": "[cocaine, reference compound]", "values": [{"measurement": "IC50", "setting": "[1]", "result": "> 100", "unit": "µM"}, {"measurement": "IC50", "setting": "[2]", "result": "> 100", "unit": "µM"}]}, {"smiles": "CCN(CC)CCOC(=O)c1ccc(N)cc1", "note": "[procaine, reference compound]", "values": [{"measurement": "binding affinity for nicotine receptor, in words", "setting": "[1]", "result": "some binding affinity"}, {"measurement": "IC50", "setting": "[1]", "result": 70, "unit": "µM"}, {"measurement": "IC50", "setting": "[2]", "result": 30, "unit": "µM"}]}]}
